Laboratory results from ChEMBL document CHEMBL2163339, “Discovery of potent inhibitors of human and mouse fatty acid amide hydrolases” (J Med Chem, 2012).

By UniProt entry, the sequences of proteins in these tests, tags left out.
UniProt O00519, whole entry: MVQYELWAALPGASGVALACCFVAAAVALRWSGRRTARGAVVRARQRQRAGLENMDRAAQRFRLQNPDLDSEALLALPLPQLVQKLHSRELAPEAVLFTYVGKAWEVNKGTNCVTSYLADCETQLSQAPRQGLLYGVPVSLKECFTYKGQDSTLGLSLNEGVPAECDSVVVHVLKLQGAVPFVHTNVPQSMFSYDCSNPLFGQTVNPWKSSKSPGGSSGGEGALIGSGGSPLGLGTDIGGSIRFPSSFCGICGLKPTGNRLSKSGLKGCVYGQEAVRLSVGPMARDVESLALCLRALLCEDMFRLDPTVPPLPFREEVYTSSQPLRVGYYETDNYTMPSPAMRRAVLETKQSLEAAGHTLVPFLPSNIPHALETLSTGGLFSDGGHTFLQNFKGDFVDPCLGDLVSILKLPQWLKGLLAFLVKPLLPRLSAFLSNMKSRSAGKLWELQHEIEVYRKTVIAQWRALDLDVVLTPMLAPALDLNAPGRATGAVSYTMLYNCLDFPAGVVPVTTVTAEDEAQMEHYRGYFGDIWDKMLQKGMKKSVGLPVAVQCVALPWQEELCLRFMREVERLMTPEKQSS

Target: Fatty-acid amide hydrolase 1 (Homo sapiens, UniProt O00519)
Experiment: Inhibition of human recombinant FAAH

C#CCCCCCCCCCNC(=O)Oc1cccc(-n2ccc(C(N)=O)c2)c1
IC50: 170 nM
